Consider one molecule from US20260108513A1, “Combination of Talazoparib and Enzalutamide in the Treatment of Metastatic Castration-Resistant Prostate Cancer” (Pfizer Inc., priority 2022, published 2026).

This series relates to mCRPC patients. Particulars: male, human, in vivo. The text has this:
This population was the primary population for evaluating safety.

With `Cn1ncnc1[C@H]1c2n[nH]c(=O)c3cc(F)cc(c23)N[C@@H]1c1ccc(F)cc1` [talazoparib, (8S,9R)-5-fluoro-8-(4-fluorophenyl)-9-(1-methyl-1H-1,2,4-triazol-5-yl)-8,9-dihydro-2H-pyrido[4,3,2-de]phthalazin-3(7H)-one], the “anemia leading to dose reduction of talazoparib (with or without transfusion)” value is listed as 43.2%.
